Data published in PMC7744439 (European journal of medicinal chemistry, 2020).

Molecular target: T1, HDAC6 (Homo sapiens, UniProt Q9UBN7)
T1 sequence (Q9UBN7 1-1215): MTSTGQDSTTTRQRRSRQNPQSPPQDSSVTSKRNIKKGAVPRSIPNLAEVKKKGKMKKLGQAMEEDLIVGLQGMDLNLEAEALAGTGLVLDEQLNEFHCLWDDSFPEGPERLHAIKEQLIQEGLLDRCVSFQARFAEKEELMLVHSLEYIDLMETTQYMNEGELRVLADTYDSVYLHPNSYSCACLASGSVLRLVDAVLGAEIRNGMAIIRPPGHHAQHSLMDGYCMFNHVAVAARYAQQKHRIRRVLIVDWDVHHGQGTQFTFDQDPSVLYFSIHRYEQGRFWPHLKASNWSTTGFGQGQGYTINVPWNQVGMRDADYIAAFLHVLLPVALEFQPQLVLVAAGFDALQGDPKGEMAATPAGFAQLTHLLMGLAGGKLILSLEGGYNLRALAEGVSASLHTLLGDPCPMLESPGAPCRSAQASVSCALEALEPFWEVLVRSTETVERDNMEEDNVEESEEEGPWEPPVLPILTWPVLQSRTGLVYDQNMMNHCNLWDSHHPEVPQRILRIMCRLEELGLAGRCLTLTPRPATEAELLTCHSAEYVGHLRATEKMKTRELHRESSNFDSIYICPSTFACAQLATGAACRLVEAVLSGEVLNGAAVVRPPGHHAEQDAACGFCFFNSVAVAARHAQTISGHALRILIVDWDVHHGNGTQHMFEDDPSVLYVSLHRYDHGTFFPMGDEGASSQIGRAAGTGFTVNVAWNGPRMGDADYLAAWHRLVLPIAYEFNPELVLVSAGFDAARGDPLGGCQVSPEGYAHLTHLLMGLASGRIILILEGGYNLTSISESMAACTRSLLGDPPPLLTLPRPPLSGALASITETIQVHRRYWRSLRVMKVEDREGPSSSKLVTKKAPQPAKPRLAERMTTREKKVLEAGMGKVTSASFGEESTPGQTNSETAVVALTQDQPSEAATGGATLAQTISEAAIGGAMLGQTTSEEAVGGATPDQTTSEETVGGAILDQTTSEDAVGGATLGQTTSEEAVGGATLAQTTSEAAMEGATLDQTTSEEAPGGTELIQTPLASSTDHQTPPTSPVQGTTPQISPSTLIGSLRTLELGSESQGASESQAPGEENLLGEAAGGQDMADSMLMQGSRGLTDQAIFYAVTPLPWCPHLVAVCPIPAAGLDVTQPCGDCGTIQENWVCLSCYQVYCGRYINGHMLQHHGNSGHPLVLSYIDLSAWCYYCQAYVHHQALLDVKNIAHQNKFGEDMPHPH
Experiment: HDAC6 enzymatic inhibition
Type: biochemical
Details: text prints -folds

CN(C)c1ccc(C(=O)NCCCCCNC(=O)CS)cc1 [Compound 20]
SI, HDAC1/6 selectivity index: 9.8
